Values of other authors in patent US20230301973A1, “TREATMENT OF DIFFUSE INTRINSIC PONTINE GLIOMA” (priority 2016, published 2023).

The chains behind the UniProt entries cited, without tags or fusion partners. Where a name states a change or a piece, a line headed by the entry shows the natural chain unless it says otherwise.
UniProt Q14680: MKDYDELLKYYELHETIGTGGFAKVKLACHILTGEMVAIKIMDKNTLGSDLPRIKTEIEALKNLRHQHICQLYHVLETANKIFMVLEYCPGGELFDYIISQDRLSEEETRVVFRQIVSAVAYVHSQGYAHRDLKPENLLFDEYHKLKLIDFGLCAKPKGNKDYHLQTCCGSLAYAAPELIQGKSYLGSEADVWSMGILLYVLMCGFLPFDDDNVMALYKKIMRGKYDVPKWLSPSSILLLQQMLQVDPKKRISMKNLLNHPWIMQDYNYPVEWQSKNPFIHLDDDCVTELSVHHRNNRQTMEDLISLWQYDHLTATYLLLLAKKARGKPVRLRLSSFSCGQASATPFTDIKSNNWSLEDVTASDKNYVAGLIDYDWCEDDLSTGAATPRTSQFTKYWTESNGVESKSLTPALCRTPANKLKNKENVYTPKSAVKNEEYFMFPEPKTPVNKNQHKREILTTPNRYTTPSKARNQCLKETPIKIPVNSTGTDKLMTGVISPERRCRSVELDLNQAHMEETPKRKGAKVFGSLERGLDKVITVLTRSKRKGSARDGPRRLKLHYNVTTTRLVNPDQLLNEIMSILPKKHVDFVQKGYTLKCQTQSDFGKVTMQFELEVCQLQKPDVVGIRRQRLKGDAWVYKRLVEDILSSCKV

What was measured:
MELK = MELK (Homo sapiens, UniProt Q14680); conditions: cited from earlier work
[1] = clinical; result in words; cited from earlier work

Compound	IC50 (MELK) [nM]	MTD [1]
CC(=O)c1cnc2ccc(-c3cc(Cl)c(O)c(Cl)c3)nc2c1NC1CCC(CN(C)C)CC1 (centres unmarked) [OTS167, 1-[6-(3,5-Dichloro-4-hydroxyphenyl)-4-({4-[(dimethylamino)methyl]cyclohexyl}amino)-1,5-naphthyridin-3-yl]ethanone]	0.41	–
Cetuximab	–	Not reached
